# Antibody variant affinities, Ab-14 heavy chain, assay B

Target peptide (SARS-CoV-2 spike, HR2 region): PDVDLGDISGINAS

Each scFv is VH, the linker GGGGSGGGGSGGGGS, VL, as in the parent Ab-14, and differs from it in the CDRs of the heavy chain only.
VH: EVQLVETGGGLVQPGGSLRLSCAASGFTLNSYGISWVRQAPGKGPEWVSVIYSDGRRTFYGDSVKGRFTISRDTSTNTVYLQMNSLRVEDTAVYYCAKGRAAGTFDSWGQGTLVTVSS
VL: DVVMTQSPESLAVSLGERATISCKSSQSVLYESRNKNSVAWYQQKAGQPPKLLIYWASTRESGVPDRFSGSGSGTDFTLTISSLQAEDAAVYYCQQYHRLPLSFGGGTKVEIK

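The variants were designed computationally from a first round of random CDR variants and then made and measured. Group labels follow the data file (Ctrl: baseline library sampled from a position-specific scoring matrix, with some repeated check sequences; Rand: our label for a block that the file lists under HC and that is probably the random mutants of the ten best first-round binders; En: ensemble of fine-tuned language models; GP: Gaussian process model; GPLM: also part of the Gaussian process libraries; HC: hill climbing; Gen: genetic algorithm; Gibbs: Gibbs sampling; a sequence that several methods proposed may carry one label only). The scFvs were displayed on barcoded MATa yeast, the peptide on MATalpha yeast. After mating in shaken culture at 30 °C for 16 h, diploids were selected and their barcode pairs sequenced. Read counts were normalised to the haploid input and turned into Kd by a linear fit to BCL2-family pairs of known affinity, for each replicate. Each pool was mated in six replicate cultures.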

The parent's heavy chain CDRs are GFTLNSYGIS, VIYSDGRRTFYGDSVK, GRAAGTFDS; each variant's own CDRs replace them letter for letter.
Numbers give log10(Kd / nM), so 0 is 1 nM and 3 is 1 µM. Smaller is tighter.
The mean shown is taken over the replicates in which the pair was detected.
A pair that was not seen in any replicate is written "nd"; this usually means weak binding, but a binder can also be missed.

mean, log10 nM	seen in	signal with controls	CDR-H1	CDR-H2	CDR-H3	group
-1.08	6/6	0/18	GFDLNEYGIS	VIYADGMRTAYADKVK	GQVAGTFDV	En_Gen
nd	0/6	0/18	GFNLNSYGIS	VIYSDGMRTFYEDSVK	GREMATFDS	Ctrl
nd	0/6	0/18	GFTLESYGIS	VIYSDGRRTFYGQAVK	GRWAGTFDS	Ctrl
1.33	6/6	0/18	GFTLNSYGIS	VIYSDGRRTFYDDSVK	GMLAGTFDS	GPLM_HC
0.76	1/6	0/18	GFTLNSYGIS	VIYADGRRTFYGDQVK	GGHAGSFDS	Ctrl
0.37	6/6	0/18	GFELNEYGIS	VIYSDGRRTFYSDSVK	GKQAGTFDS	GP_Gibbs
0.95	2/6	0/18	GFTLNSYGIS	VIYADGRRTFYGDEVK	GRAAGTFKS	GP_HC
nd	0/6	0/18	GQQLNSFGYS	VIYSDGRRTAYGDSVK	GEEALTFDS	Ctrl
0.09	6/6	0/18	GFDLDEYGIS	VIYADGQRTAYSDSVK	GENAGTFDI	En_Gen
1.11	6/6	0/18	GHTLNEYGIS	VIYSDGRRTMYGDSVK	GRAAGTFDS	Ctrl
2.73	1/6	1/18	GFDLGEYGIS	VIYADGHRAAYSDNVK	GAHSGSVQT	En_Gibbs
-0.11	6/6	0/18	GFDLNEYGIS	VIYADGLRTSYDDSVK	GQLAGTFDL	En_HC
-0.54	6/6	0/18	GFDLDEYGIS	VIYADGRRTFYVDSVK	GNVAGTFDS	En_HC
nd	0/6	0/18	GFTLNEYGIS	VIYSDGRRTFYGDSVK	GRAAVTCDQ	Rand
0.65	6/6	1/18	GFTLNSYGIS	VIYSDGRRTFYKDSVK	GQEAGTFDS	GPLM_Gen
-0.30	6/6	0/18	GFDINEYGIS	VIYADGRRTAYADSVK	GEAAGTFDI	En_HC
-0.15	6/6	0/18	GFNLDEYGIS	VIYADGRRTFYSDNVK	GEVAGTFDL	En_HC
0.26	6/6	0/18	GFFLNDYGIS	VIYSDGRRTFYTDSVK	GTAAGTFDS	GP_HC
nd	0/6	0/18	GFCLNSYGVS	VIYSDGVRTFYGDSVK	GRAAGTFDM	Ctrl
1.36	6/6	0/18	GFTLNSYGIS	VIYSDGKRTFYSDSVK	GSAAGTFDS	GPLM_HC
nd	0/6	0/18	GFTLNSYGIS	VIHSDGRRTFYSDSVK	GRAGGTFDS	Rand
-1.42	6/6	0/18	EFDIQEYGIS	VIYADGKREAYKDKFK	GQVAGTFDA	En_Gibbs
nd	0/6	0/18	GFGLDEFGIS	VIYADGQRTAYLNSFK	GENSNAYDT	En_Gibbs
0.09	6/6	0/18	GFDLNDYGIS	VIYADGRRTFYADSVK	GEMAGTFDI	En_HC
nd	0/6	0/18	YFTLNSYGIS	VIYSDGRRTFYSDSVK	GRAGGTFDS	Rand
-0.41	6/6	0/18	GFGLDEYGIS	VIYADGRRTAYADSVK	GENAGTFDM	En_HC
0.95	6/6	2/18	GFTLNSYGIS	VIYSDGVRTFYSDSVK	GKAAGTFDS	GPLM_Gen
-0.16	6/6	0/18	GFDLNEYGIS	VIYADGRRSFYSDSVK	GEAAGTFDV	En_HC
nd	0/6	0/18	GFSLNEYGIS	VIYSDGRRTFYGDSVK	GRHAGTFDT	GPLM_Gibbs
1.17	2/6	0/18	GFSLNSYGIS	VIYSDGRRTKYHDDVK	GRVAGTFDS	Ctrl
-0.56	6/6	0/18	GFDLNEYGIS	VIYADGRRTAYIDSVK	GHVAGTFDS	En_HC
-0.08	3/6	0/18	GFDLEEYGIS	VIYADGRRTQYADSVK	GEAAGTFDL	En_HC
-1.02	6/6	0/18	GFDLNEYGIS	VIYADGRRTAYIDSVK	GNQAGTFDV	En_Gen
nd	0/6	0/18	GDGLQEYGIS	VIYADGFRSSYSNDVK	GTNAGIFMQ	En_Gibbs
1.66	6/6	0/18	GFQLNSYGIS	VIYSDGRRTFYQDSVK	GRTAGTFDS	GPLM_Gen
-0.14	6/6	1/18	GFSLNEYGIS	VIYSDGRRTFYGWSVK	GRAAGTFDS	GP_Gen
1.12	6/6	0/18	GFTLESYGIS	VIYSDGRRTFYADSVK	GKAAGTFDV	GP_Gibbs
-0.73	6/6	0/18	GFDLNEYGIS	VIYADGRRTFYTDSVK	GQNAGTFDV	En_HC
-0.29	6/6	0/18	GFDLNEYGIS	VIYSDGRRTFYGDSVK	GSAAGTFDS	GP_Gen
1.70	3/6	0/18	GFDLNSYGIS	VIYSDGMRTFYVDSVK	GRVAGTFDS	GP_Gibbs
0.01	6/6	0/18	GFTLNSYGIS	VIYSDGKRTFYSDSVK	GQAAGTFDF	GPLM_Gen
0.49	6/6	0/18	GFSLNEYGIS	VIYSDGRRTFYIDSVK	GKAAGTFDT	GP_Gibbs
0.11	6/6	1/18	EFDLNSYGIS	VIYSDGRRTFYGDSVK	GRQAGTFDS	GP_HC
-0.54	6/6	0/18	GFWLNSYGIS	VIYSDGRRTFYSDSVK	GQAAGTFDS	GPLM_Gen
-0.24	6/6	0/18	GFDLDEYGIS	VIYADGVRTYYADSVK	GENAGTFDV	En_Gen
-0.38	6/6	0/18	GFSLNSYGIS	VIYSDGRRTFYADSVK	GWTAGTFDN	GP_Gibbs
1.20	6/6	0/18	GFTLDDYGIS	VIYSDGIRTFYGDSVK	GEAAGTFDS	Ctrl
0.21	6/6	0/18	GFDLNSYGIS	VIYSDGRRTAYEDSVK	GRAAGTFDS	Ctrl
-0.63	6/6	0/18	GFDLNEYGIS	VIYADGRRTFYADSVK	GEAAGTFDQ	En_HC
nd	0/6	0/18	GFTLNSYGIS	VIYSDGRRTFYSDSVK	GRWAGTFPS	Ctrl
nd	0/6	0/18	GFDLNSYGIY	VIYSDGRRTFYGDSVK	GREAGAFCS	Ctrl
0.54	6/6	0/18	GFDLNEYGIS	VIYADGRRTSYSDSVK	GEAAGTFDV	En_HC
1.69	4/6	0/18	GFWLNEYGIS	VIYSDGRRTFYKDSVK	GRFAGTFDS	GP_HC
0.70	6/6	1/18	GFTLNQYGIS	VIYSDGRRTFYGDSVK	GRAAGTFDL	Ctrl
nd	0/6	0/18	GFQLDEYGIS	VIYADGMRTMYADSFK	GMKSVNIGD	En_Gibbs
-0.76	6/6	0/18	GFDLNEYGIS	VIYADGRRTFYIDSVK	GEIAGTFDQ	En_HC
-0.30	6/6	0/18	GFDLNEYGIS	VIYADGRRTFYIDSVK	GEVAGTFDM	En_HC
0.59	6/6	0/18	GFSLNSYGIS	VIYSDGRRTFYGDSVK	GKAAGTFDS	GPLM_Gen
nd	0/6	0/18	GDGLQEYGIS	VIYADGFRTSYANSVK	GTGAGIFMV	En_Gibbs
1.56	6/6	0/18	GFSLNEYGIS	VIYSDGRRTFYGDSVK	GWTAGTFDS	GPLM_Gibbs
0.28	5/6	0/18	GFDLNEYGIS	VIYADGMRTFYADSVK	GQNAGTFTL	En_HC
nd	0/6	0/18	GQTLNSYGRS	VIYADGRRTFYGDSVK	GRAAGTFDT	Ctrl
1.04	1/6	0/18	GFTLNSYGIS	VIYSDGRRTFYDDSVK	GQLAGMFGS	Rand
-0.52	6/6	0/18	GFDLNEYGIS	VIYADGMRTAYVDDVK	GEVAGTFDV	En_Gen
1.46	6/6	0/18	GFNLNSYGIS	VIYSDGRRTFYADQVK	GRQAGTFDS	GP_Gibbs
nd	0/6	0/18	GFTLNSYGIS	VIYSDGRRTFYDDSTS	GRAAGYFDS	Ctrl
1.49	4/6	0/18	GFVLNDYGIS	VIYSDGRRTMYIDSVK	GRAAGTFDQ	GP_HC
nd	0/6	0/18	GFDLDEYGIS	VIYADGGRVSYAQNVK	GLVGKLGVV	En_Gibbs
1.45	1/6	0/18	GFTLEDYGIS	VIYSDGRRTFYGDSVK	GQATGTFDS	Ctrl
nd	0/6	0/18	GGDIQEYGIS	VIYADGQRAQYADAVK	GNIGAIFSD	En_Gibbs
nd	0/6	0/18	GHTLNKYGIS	VIYSDGYRTFYGDSVK	GRAAGTFDS	Ctrl
nd	0/6	0/18	GFTLNSYGIS	VMYADGRRTFYGDSVK	GRAYGTFDS	Ctrl
-0.62	5/6	0/18	GFDLSEYGIS	VIYADGMRTAYADSVK	GQNAGTFDV	En_Gen
0.78	6/6	1/18	GFDLNSYGIS	VIYSDGRRTFYGDSVK	GRTAGAFDS	GPLM_Gen
nd	0/6	0/18	GFWLNDYGIS	VIYSDGRRTFYIDHVK	GKAAGTFDS	GP_HC
-0.11	6/6	0/18	GFDLNEYGIS	VIYADGVRTAYSDSVK	GNVAGTFDL	En_Gen
0.10	6/6	0/18	GFDLDEYGIS	VIYADGRRTAYADSVK	GSNAGTFDM	En_HC
0.26	6/6	1/18	GFGLNEYGIS	VIYSDGRRTFYGDSVK	GQAAGTFDT	GPLM_Gen
0.33	6/6	1/18	GFDLNSYGIS	VIYSDGRRTFYKDSVK	GKAAGTFDV	GP_Gibbs

The range of this assay differs from that of the first round, and the authors advise against merging the two.
Three control strains display no target. For all heavy chain designs, 1% of the pairings with them gave a signal, with a median of 2.08 and one signal in twenty below 0.84, so weak values seen in few replicates may be background. For each scFv, signals with the empty controls are counted beside the result.
The authors averaged sequences with at least three values out of six and counted those with two or fewer as poor binders.
The parent sequence was in this pool as ten entries: three were never detected, three once, and four in most replicates, with averages from 0.34 to 2.37.

Data: MIT Lincoln Laboratory AlphaSeq set, Li et al. 2023, doi:10.1038/s41467-023-39022-2, as distributed in FLAb.